Test system: recombinant human FcγR (FcγRI, FcγRIIa/CD32, FcγRIIIa/CD16)
Experiment: Lumit FcγR Binding Immunoassays (FcγRI, FcγRIIa/CD32, FcγRIIIa/CD16)
Conditions: competition with Tracer-LgBiT; n=1
Procedure: with Fc gamma receptors (FcγRs) was analyzed. FcγR interaction studies were performed using the Lumit™ FcγR Binding Immunoassays (FcγRn, FcγRI, FcγRIIa/CD32 R131/H131 polymorphism, FcγRIIIa/CD16 V158/F158 polymorphism; Promega) based on a competition principle and luciferase detection according to the manufacturer's instructions. […] In the absence of an antibody analyte or if no interaction of the tested antibody with FcγRs takes place, Tracer-LgBiT binds to the FcγR-SmBiT target, resulting in maximum luminescence signal. In the case of successful interaction with FcγRs, the tested antibody/ADC will compete with Tracer-LgBiT for binding to the FcγR target, resulting in a concentration-dependent decrease in the luminescent signal. Luminescence is measured on a microplate reader Infinite M200 Pro (Tecan). Graphs show n=1.
In the absence of an antibody analyte or if no interaction of the tested antibody with FcγRs takes place, Tracer-LgBiT binds to the FcγR-SmBiT target, resulting in maximum luminescence signal. In the case of successful interaction with FcγRs, the tested antibody/ADC will compete with Tracer-LgBiT for binding to the FcγR target, resulting in a concentration-dependent decrease in the luminescent signal. Luminescence was measured on a microplate reader Infinite M200 Pro (Tecan). Graphs show n=1.

- Interaction with FcγR: reduced interaction
Substance: trastuzumab [reference compound]

Source: patent US20240245798A1, “NOVEL ANTI-TPBG ANTIBODY AND ANTIBODY-DRUG-CONJUGATES BASED THEREON, THERAPEUTIC METHODS AND USES THEREOF” (Tubulis GmbH, priority 2022, published 2024)
